Data as given in patent publication US7605168B2 (Plexxikon, Inc., priority 2004, dated 2009).

Sequences of proteins named here, by UniProt entry; tags and fusion partners are left off. A line that says so, or that is headed by a name, gives the form on record, which may keep a tag or linker. Residues count along the entry.
UniProt Q07343, 324-700 limits assumed: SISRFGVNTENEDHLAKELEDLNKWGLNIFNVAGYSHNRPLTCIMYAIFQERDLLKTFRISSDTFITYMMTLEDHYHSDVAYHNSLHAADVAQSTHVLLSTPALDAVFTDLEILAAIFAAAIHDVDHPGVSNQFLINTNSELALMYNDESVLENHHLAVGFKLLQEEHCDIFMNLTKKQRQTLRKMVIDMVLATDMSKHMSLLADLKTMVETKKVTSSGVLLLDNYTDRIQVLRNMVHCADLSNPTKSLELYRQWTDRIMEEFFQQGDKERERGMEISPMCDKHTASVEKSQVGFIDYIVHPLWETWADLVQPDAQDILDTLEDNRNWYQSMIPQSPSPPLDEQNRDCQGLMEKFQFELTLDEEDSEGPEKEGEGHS
UniProt Q07343, 1-564 with tags or gaps isoform 2: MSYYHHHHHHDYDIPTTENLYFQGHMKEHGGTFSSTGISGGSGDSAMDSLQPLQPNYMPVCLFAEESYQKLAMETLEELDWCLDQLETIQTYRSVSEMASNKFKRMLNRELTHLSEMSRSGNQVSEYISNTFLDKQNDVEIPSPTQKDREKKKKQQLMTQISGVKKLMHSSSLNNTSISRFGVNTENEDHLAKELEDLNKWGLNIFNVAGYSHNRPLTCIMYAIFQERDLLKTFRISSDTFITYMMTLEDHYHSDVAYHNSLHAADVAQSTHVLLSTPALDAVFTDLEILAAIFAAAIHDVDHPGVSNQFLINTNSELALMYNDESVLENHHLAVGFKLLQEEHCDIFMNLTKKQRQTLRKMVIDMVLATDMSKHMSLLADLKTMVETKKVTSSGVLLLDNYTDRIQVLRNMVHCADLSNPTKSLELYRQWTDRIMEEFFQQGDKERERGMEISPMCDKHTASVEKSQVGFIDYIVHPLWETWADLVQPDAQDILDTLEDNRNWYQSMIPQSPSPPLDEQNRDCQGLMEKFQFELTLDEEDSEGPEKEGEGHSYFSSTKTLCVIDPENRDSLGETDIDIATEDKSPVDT
UniProt Q08499, 1-745 with tags or gaps isoform 6: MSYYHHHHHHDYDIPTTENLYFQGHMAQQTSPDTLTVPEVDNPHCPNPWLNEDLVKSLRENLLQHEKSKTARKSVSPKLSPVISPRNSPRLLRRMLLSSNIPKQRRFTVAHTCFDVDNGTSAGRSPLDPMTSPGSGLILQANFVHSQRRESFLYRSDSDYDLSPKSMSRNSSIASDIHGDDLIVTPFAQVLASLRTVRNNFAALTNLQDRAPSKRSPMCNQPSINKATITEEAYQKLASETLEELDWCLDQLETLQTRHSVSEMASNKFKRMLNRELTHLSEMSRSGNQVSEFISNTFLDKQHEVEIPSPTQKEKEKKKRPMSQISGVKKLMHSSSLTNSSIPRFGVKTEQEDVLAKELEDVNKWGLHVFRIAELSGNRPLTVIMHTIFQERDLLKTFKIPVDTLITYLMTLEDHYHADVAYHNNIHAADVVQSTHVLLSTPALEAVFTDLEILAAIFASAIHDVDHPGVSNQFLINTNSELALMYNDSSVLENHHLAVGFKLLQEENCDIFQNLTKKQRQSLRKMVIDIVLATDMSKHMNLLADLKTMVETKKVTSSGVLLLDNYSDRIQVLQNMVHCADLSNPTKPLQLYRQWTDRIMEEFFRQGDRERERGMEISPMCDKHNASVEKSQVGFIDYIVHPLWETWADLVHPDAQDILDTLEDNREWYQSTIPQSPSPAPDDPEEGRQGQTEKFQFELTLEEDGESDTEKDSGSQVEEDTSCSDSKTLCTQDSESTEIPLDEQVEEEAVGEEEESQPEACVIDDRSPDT

Experiments:
[1] = molecular target: PDE4B: catalytic domain of human PDE4B from S152-S528 (Homo sapiens, UniProt Q07343); experiment: PDE4 IC50 determination by Scintillation Proximity Assay (SPA), PDE4B catalytic domain; conditions: read-out: PDE4B IC50, [3H]cAMP SPA, 30 min at 30° C.
[2] = molecular target: PDE4B2: full-length human PDE4B2 isozyme (Homo sapiens, UniProt Q07343); experiment: PDE4 IC50 determination by Scintillation Proximity Assay (SPA), full-length PDE4B2; conditions: read-out: PDE4B2 IC50, cell lysate, [3H]cAMP SPA
[3] = molecular target: PDE4D5: full-length human PDE4D5 isozyme (Homo sapiens, UniProt Q08499); experiment: PDE4 IC50 determination by Scintillation Proximity Assay (SPA), full-length PDE4D5; conditions: read-out: PDE4D5 IC50, cell lysate, [3H]cAMP SPA

Measured: IC50

COc1ccc(-c2cn(S(=O)(=O)c3cccc4cc(C)cnc34)c3ccccc23)cc1OC
< 10 µM: all assays above
